Results from PubChem BioAssay AID651640 (Broad Institute, 2012).
The entries are a selection whose mix differs from that of the whole data set. Records with an inconclusive call do not appear. Activity calls are given as the source filed them. Cut-off read from the data, not from the text of the source: active = CPE inhibition above about 20% (passing the limit was not always enough); inconclusive = no clear call, values can overlap the other calls; tested in BHK-21 cells.

assay: protection of cells from dengue 2 killing – plate reader, single concentration, primary screen (AID 651640); details: DENV2-infected cells, cytopathic effect rescue, at 9.99 µM, hits give high values;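 note: 0% = median of neutral control wells and 100% = median of positive control wells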

**Q.** For `COc1cc(I)ccc1[As](=O)(O)O`, which CPE inhibition is on record?
**A.** Its CPE inhibition is inactive: 12%.

**Q.** With `Cc1c2c(nc3ccccc13)SC(C(Cl)Cl)C2` (centres undefined) as the compound, how does the CPE inhibition read?
**A.** Its CPE inhibition is inactive: -5.27%.

**Q.** Which CPE inhibition does the source give for `O=C(NC(Sc1ccncn1)C(Cl)(Cl)Cl)c1ccccc1` (centres undefined) here?
**A.** Its CPE inhibition is inactive: 4.91%.

**Q.** For `Nc1cc(N)c2nonc2c1[N+](=O)[O-]`, which CPE inhibition is on record?
**A.** The CPE inhibition was inactive: 11.3%.

**Q.** For `Clc1ccc(Cl)c(NC2=NCC(CBr)S2)c1` (centres undefined), which CPE inhibition is on record?
**A.** Its CPE inhibition is inactive: 10.4%.

**Q.** Which CPE inhibition does the source give for `Cc1ccc(OP(=O)(Nc2nccs2)Oc2ccc(C)cc2)cc1` here?
**A.** The CPE inhibition was inactive: 1.41%.

**Q.** For `CN(C(=O)Cc1ccc(Cl)c(Cl)c1)[C@H]1CCCC[C@H]1N1CCCC1`, which CPE inhibition is on record?
**A.** Its CPE inhibition is inactive: 1.16%.

**Q.** With `Cc1ccc(N/C(=N/P(=O)(N2CCOCC2)N2CCOCC2)N2CCOCC2)cc1` as the compound, how does the CPE inhibition read?
**A.** The CPE inhibition was inactive: 2.52%.

**Q.** With `NC(=O)c1cc([N+](=O)[O-])cc([N+](=O)[O-])c1N` as the compound, how does the CPE inhibition read?
**A.** The CPE inhibition was inactive: 0.89%.

**Q.** With `Nc1cccc2ccc([As](=O)(O)O)cc12` as the compound, how does the CPE inhibition read?
**A.** Its CPE inhibition is inactive: -3.9%.

**Q.** Which CPE inhibition does the source give for `CN(C(=O)Cc1ccccc1)C1CC[C@@]2(CCCO2)C[C@@H]1N1CCCC1` (some centres undefined) here?
**A.** The CPE inhibition was inactive: 2.3%.

**Q.** Which CPE inhibition does the source give for `CN(C(=O)Cc1ccc(Cl)c(Cl)c1)[C@H]1CCCC[C@@H]1N1CCCC1` here?
**A.** The CPE inhibition was inactive: 4.21%.

**Q.** With `Cc1ccc(NP(=O)(Oc2ccccc2F)Oc2ccccc2F)nc1` as the compound, how does the CPE inhibition read?
**A.** Its CPE inhibition is inactive: -2.51%.

**Q.** Which CPE inhibition does the source give for `O=P(Nc1nc2ccc(Cl)cc2s1)(c1ccccc1)c1ccccc1` here?
**A.** Its CPE inhibition is inactive: -1.73%.

**Q.** For `CN(C)P(=O)(N(C)C)n1c(Nc2ccccc2)nnc1-c1ccccc1`, which CPE inhibition is on record?
**A.** The CPE inhibition was inactive: -2.36%.

**Q.** With `CC(=O)Nc1ccc([As](=O)(O)O)cc1` as the compound, how does the CPE inhibition read?
**A.** Its CPE inhibition is inactive: 1.68%.

**Q.** For `O=C(O)c1ccccc1[As](=O)(O)O`, which CPE inhibition is on record?
**A.** Its CPE inhibition is inactive: -8.81%.

**Q.** Which CPE inhibition does the source give for `CCCC1OP(N)(=O)OCC1CC` (centres undefined) here?
**A.** Its CPE inhibition is inactive: -2.54%.

**Q.** Which CPE inhibition does the source give for `O=C(O)CNc1ccc([As](=O)(O)O)cc1` here?
**A.** Its CPE inhibition is inactive: -3.53%.

**Q.** For `COC(=O)C1(C)COP(=O)(Nc2ccccc2)OC1` (centres undefined), which CPE inhibition is on record?
**A.** The CPE inhibition was inactive: 3.25%.

**Q.** With `O=[N+]([O-])c1cccc(NC2=NCC(CBr)S2)c1` (centres undefined) as the compound, how does the CPE inhibition read?
**A.** The CPE inhibition was inactive: -1.99%.

**Q.** For `O=[N+]([O-])c1ncn(CCn2ncnc2[N+](=O)[O-])n1`, which CPE inhibition is on record?
**A.** The CPE inhibition was inactive: 9.14%.

**Q.** Which CPE inhibition does the source give for `CC(C)(C)C(=O)NC(Sc1ccncn1)C(Cl)(Cl)Cl` (centres undefined) here?
**A.** Its CPE inhibition is inactive: -2%.

**Q.** Which CPE inhibition does the source give for `O=C(Nc1cc([As](=O)(O)O)ccc1O)c1ccccc1` here?
**A.** The CPE inhibition was inactive: 5.18%.

**Q.** Which CPE inhibition does the source give for `O=P1(N(CCCl)CCCl)OCCCS1` (centres undefined) here?
**A.** Its CPE inhibition is inactive: 15.7%.

**Q.** Which CPE inhibition does the source give for `c1cc(-c2nn[nH]n2)ccc1-c1nn[nH]n1` here?
**A.** Its CPE inhibition is inactive: 6.59%.

**Q.** For `CC(C)c1nc(Nc2ccccc2)n(P(=O)(N(C)C)N(C)C)n1`, which CPE inhibition is on record?
**A.** The CPE inhibition was inactive: -1.53%.

**Q.** With `CC(C)=N/N=C(\N)N[N+](=O)[O-]` as the compound, how does the CPE inhibition read?
**A.** The CPE inhibition was inactive: -0.299%.

**Q.** For `CCN(/C(=N/P(=O)(N1CCOCC1)N1CCOCC1)N1CCOCC1)c1ccc(OC)cc1`, which CPE inhibition is on record?
**A.** Its CPE inhibition is inactive: -7.98%.
